Experimental data published in BindingDB's records for doi:10.3109/14756366.2011.649268 (Università degli Studi di Firenze, 2013).

Biological target: T1, Carbonic anhydrase (Helicobacter pylori, UniProt Q08IJ2)
T1 sequence (Q08IJ2 whole entry): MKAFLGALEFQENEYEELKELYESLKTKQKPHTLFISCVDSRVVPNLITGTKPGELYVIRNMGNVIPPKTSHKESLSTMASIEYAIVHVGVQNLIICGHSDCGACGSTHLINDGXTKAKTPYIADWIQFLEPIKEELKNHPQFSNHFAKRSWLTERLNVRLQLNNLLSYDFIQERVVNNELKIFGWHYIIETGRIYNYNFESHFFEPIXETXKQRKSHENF
Assay: An Applied Photophysics stopped-flow instrument has been used for assaying the CA catalysed CO2 hydration activity Khalifah RG. The carbon dioxide hydration activity of carbonic anhydrase. I. Stop-flow kinetic studies on the native human isoenzymes B and C. […] The CO2 concentrations ranged from 1.7 to 17 mM for the determination of the kinetic parameters and inhibition constants. […] The uncatalyzed rates were determined in the same manner and subtracted from the total observed rates. Stock solutions of inhibitor (10 mM) were prepared in distilled-deionized water and dilutions up to 0.01 nM were done thereafter with distilled-deionized water. Inhibitor and enzyme solutions were preincubated together for 15 min at room temperature prior to assay, in order to allow for the formation of the E-I complex.
Settings: pH 7.5; 25 °C

[O]=[Re](=[O])(=[O])[OH]
Ki: 820 µM

O=C(O)O [CO3(2-)]
Ki: 420 µM
